Among the data in article PMC11145553 are Kd values, retold here.

Protein sequences, listed by entry. Tags and fused reporters are not part of them. Residues count along the entry.
UniProt Q92673, 82-2135: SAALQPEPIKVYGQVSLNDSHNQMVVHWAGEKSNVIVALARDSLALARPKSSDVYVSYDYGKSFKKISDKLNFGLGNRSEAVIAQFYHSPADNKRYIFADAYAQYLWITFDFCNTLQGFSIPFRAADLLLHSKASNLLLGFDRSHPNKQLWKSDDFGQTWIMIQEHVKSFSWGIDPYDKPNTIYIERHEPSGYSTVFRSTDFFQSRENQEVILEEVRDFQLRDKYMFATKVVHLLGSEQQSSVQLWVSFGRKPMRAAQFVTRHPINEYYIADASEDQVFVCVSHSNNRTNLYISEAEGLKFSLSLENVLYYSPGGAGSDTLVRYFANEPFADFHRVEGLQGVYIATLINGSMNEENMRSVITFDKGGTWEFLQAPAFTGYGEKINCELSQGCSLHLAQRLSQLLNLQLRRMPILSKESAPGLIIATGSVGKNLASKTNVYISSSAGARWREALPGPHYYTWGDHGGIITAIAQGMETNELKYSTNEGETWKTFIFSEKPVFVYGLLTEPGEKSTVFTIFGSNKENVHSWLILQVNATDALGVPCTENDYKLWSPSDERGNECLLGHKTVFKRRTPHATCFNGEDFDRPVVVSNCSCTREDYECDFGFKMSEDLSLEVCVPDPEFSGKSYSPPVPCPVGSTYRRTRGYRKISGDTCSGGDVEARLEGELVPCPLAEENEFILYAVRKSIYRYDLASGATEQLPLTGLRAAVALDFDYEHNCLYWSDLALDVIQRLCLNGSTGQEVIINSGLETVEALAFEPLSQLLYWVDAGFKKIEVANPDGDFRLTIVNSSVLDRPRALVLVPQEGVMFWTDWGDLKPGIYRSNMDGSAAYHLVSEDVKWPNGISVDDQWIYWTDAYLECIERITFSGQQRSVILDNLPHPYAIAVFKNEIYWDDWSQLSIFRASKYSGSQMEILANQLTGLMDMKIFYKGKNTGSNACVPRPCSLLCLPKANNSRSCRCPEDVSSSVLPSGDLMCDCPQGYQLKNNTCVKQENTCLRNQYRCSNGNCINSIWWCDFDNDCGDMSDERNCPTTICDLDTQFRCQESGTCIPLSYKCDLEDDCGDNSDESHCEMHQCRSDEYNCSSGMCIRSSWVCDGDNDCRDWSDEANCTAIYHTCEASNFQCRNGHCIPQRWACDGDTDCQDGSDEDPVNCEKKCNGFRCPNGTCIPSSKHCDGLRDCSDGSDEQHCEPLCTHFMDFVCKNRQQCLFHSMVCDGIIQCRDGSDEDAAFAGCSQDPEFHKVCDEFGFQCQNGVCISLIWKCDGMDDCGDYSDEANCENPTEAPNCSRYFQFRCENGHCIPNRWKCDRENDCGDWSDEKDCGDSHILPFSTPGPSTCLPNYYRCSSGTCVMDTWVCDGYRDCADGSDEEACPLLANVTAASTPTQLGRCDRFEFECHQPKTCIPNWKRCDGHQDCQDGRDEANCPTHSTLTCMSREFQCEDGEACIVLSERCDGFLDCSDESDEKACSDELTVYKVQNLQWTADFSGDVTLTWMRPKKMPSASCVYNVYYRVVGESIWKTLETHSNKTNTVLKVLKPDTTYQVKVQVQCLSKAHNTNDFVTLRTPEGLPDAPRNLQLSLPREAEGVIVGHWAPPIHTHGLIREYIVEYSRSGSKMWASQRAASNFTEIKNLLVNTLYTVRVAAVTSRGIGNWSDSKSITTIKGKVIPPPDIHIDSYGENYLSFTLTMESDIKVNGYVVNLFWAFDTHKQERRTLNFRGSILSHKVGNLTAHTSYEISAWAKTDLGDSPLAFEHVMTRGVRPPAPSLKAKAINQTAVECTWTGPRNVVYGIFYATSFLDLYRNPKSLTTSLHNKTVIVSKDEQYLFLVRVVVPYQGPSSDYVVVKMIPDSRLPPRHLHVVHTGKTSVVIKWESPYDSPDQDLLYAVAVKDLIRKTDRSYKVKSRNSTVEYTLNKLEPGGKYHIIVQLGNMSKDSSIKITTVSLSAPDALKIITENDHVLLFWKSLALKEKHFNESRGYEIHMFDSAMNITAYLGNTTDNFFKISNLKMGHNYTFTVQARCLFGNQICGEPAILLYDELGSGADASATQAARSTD

The assay concerns the target Recombinant full-length human SORL1 (sortilin-related receptor 1), residues 82-2135 (human) (UniProt Q92673). In words: SPR; SORL1 (82-2135) amine-coupled to a CM5 chip; tau in single cycle titrations (3.8, 11.5, 34.4, 103.3, 310 nM); 0.15 M NaCl, 0.05% Tween 20, 1 mM CaCl2 pH 7.4; equilibrium analysis (Req from a pseudo-first-order fit); data did not fit a simple 1:1 model.

Take “Phosphorylated 2N4R tau produced in SF9 cells (from UniProt P10636-8 1-441) (natural protein; phosphorylated (hyperphosphorylated forms; intermediate tau phosphorylation state); sites not printed)”: the Kd was 104 nM.
